According to patent US5844102A, “Glycohydrolase inhibitors, their preparation and use thereof” (University of Maryland Baltimore County, priority 1994, dated 1998):

Biological target: T1, α-mannosidase (jackbean) (Canavalia ensiformis, UniProt C0HJB3)
T1 construct: purchased Sigma Chemical Company
T1 sequence (C0HJB3 1-562 limits assumed): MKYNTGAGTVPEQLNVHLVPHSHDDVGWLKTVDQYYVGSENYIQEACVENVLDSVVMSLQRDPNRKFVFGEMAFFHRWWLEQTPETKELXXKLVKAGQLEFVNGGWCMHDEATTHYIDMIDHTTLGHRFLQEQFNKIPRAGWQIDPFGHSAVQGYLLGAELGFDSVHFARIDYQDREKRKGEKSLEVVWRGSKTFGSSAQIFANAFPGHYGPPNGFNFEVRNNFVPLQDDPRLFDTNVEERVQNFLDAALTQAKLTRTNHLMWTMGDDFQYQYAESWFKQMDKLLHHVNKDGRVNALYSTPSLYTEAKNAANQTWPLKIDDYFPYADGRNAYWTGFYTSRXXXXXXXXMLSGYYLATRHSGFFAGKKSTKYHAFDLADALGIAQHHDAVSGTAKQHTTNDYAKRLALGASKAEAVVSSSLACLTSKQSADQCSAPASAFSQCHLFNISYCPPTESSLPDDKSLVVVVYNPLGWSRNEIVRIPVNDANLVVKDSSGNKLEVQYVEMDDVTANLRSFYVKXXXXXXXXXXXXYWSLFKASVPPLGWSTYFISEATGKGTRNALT
T1 sequence (C0HJB3 563-981 limits assumed): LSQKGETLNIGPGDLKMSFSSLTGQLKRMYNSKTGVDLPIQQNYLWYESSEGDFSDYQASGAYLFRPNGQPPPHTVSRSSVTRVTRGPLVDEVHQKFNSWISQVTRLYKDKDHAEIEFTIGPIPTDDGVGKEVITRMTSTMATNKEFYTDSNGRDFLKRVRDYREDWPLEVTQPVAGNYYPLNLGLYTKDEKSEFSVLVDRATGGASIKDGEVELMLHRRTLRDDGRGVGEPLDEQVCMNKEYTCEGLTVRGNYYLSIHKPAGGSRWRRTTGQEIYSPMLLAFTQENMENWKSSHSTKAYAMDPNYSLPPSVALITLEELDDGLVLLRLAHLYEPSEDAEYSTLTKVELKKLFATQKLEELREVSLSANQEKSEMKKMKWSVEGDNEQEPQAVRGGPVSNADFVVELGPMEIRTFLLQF
Experiment: α-mannosidase inhibition, p-nitrophenol-α-mannopyranoside substrate
Assay type: biochemical
Settings: 25° C., citrate buffer 0.05M, pH 4.5; read-out: Ki (inhibition constant), α-Mannosidase
Protocol: The enzymes α-glucosidase (yeast), β-glucosidase (almonds), isomaltase (bakers yeast) and α-mannosidase (jackbean) were purchased from Sigma Chemical Company. Glucoamylase was isolated by the present inventors by expressing the gene from Aspergillus awamori in yeast, by methods well known in the art. Enzyme assays were performed by using p-nitrophenol -α (or β)-glucopyranosides as substrate at 37° C. in phosphate buffer (0.05M, pH 6.8) for α (β)-glucosidase and isomaltase, and p-nitrophenol-α-mannopyranoside as substrate at 25° C. in citrate (0.05M, pH 4.5) buffer for α-mannosidase. Glucoamylase was assayed using maltose as substrate at 50° C. in sodium acetate buffer (0.05M, pH 4.5).
Michaelis-Menten constant, Km, was calculated using software Grafit (Erithacus Software Ltd.). Ki was calculated by plotting K^appm vs. [Inhibitor]. FIG. 2(a) represents a plot of K^appm vs. [Inhibitor], wherein the inhibitor is the monosaccharide sugar analog isofagomin, obtained for five different glycosidases. FIG. 2(b) represents a similar plot of K^appm vs. [Inhibitor], wherein the inhibitor is the disaccharide sugar analog of formula II, obtained for five different glycosidases.

| Structure (SMILES) | Ki |
| --- | --- |
| OC[C@H]1NC[C@@H](O)[C@@H](O)[C@@H]1O [Deoxymannojirimycin, reference compound] | 278 µM |
| OC[C@H]1NC[C@H](O)[C@@H](O)[C@@H]1O [Deoxynojirimycin, reference compound] | 275 µM |
